Data: patent publication US20240150402A1

System: activatable antibodies comprising substrates selected for cleavage by uPA and matriptase (7 substrates tested), having the 3954 mask and C225v5 variant of cetuximab

Substance: u-plasminogen activator (uPA)
- kcat/KM: kcat/KM values ranging from about 400 to 5,000 M^-1s^-1 for uPA
